Data: patent US9034887B2, “Dihydroorotate dehydrogenase as antifungal drug target and quinazolinone-based inhibitors thereof” (F2G Limited, priority 2008, dated 2015)

Amino acid sequences for entries named in this document (tags omitted). Residues count along the entry.
UniProt Q02127, 31-395 limits assumed: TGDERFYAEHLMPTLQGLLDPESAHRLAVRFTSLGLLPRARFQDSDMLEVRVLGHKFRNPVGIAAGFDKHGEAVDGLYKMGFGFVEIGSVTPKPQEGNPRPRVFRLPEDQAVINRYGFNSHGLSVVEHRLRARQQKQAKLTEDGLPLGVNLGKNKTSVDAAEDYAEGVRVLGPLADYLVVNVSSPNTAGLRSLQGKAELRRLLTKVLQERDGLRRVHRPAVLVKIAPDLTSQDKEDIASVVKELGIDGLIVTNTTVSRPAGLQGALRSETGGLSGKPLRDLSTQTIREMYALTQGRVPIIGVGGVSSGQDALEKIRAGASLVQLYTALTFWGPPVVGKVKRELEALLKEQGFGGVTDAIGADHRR

Target: Recombinant DHODH from human (Homo sapiens, UniProt Q02127)
Experiment: DHODH inhibition screen (DCIP reduction, 600 nm), human enzyme
Type: biochemical
[1] = read-out: IC50 values for Compound Examples 1 to 15 identified from screens, Human, Table 3
[2] = read-out: IC50 values for DHODH inhibitors identified from screens, Human, Table 1, 34 minutes incubation

Structure (SMILES)	IC50 [1] [µM]	IC50 [2] [µM]
COc1ccccc1-n1c(SC(C)C)nc2cc(C)ccc2c1=O [Compound Example 1, 2-Isopropylsulfanyl-3-(2-methoxy-phenyl)-7-methyl-3H-quinazolin-4-one]	51.3	8.6
COc1ccccc1-n1c(SC(C)C)nc2ccc(C)cc2c1=O [Compound Example 2, 2-Isopropylsulfanyl-3-(2-methoxy-phenyl)-6-methyl-3H-quinazolin-4-one]	6.54	> 128
COc1ccccc1-n1c(SC(C)C)nc2cccc(C)c2c1=O [Compound Example 3, 2-Isopropylsulfanyl-3-(2-methoxy-phenyl)-5-methyl-3H-quinazolin-4-one]	40.2	> 133

Where two headings read alike, the source gives them in different places.
